# US20050175505A1, “Personal monitor to detect exposure to toxic agents” (published 2005)
# Test system: cholinesterase enzyme (ChE)
# Test: Inhibition of fresh, soluble (non-immobilized) ChE by OP, kinetic read at 405 nm
# Settings: enzyme and OP diluted 1:100, 2 μl enzyme, 2 μl OP, 100 μl substrate
smiles,measurement,value
CCOP(=S)(OCC)Oc1cc(C)nc(C(C)C)n1,inhibition of ChE activity,Significant inhibition
